Test: Acidic dissociation constant, pKa of the compound in phosphate/tris/glycine-NaOH containing buffer by UV-vis spectrophotometric analysis

| SMILES | pKa |
| --- | --- |
| O=C(/C=N\O)Nc1ccc[n+](CCCCCCC[n+]2cccc(NC(=O)/C=N\O)c2)c1.[Br-].[Br-] | 8.22 |
| O/N=C/c1cc[n+](CCC[n+]2ccc(/C=N/O)cc2)cc1.[Br-].[Br-] | 7.8 |
| O=C(/C=N\O)Nc1ccc[n+](CCCC[n+]2cccc(NC(=O)/C=N\O)c2)c1.[Br-].[Br-] | 8.16 |
| O=C(/C=N/O)Nc1ccc[n+](Cc2ccc(C[n+]3cccc(NC(=O)/C=N/O)c3)cc2)c1.[Br-].[Br-] | 7.95 |
| O=C(/C=N/O)Nc1ccc[n+](Cc2ccccc2C[n+]2cccc(NC(=O)/C=N/O)c2)c1.[Br-].[Br-] | 8.1 |
| O=C(/C=N\O)Nc1ccc[n+](CCC[n+]2cccc(NC(=O)/C=N\O)c2)c1.[Br-].[Br-] | 8.17 |
| O=C(/C=N/O)Nc1ccc[n+](CC[n+]2cccc(NC(=O)/C=N/O)c2)c1.[Br-].[Br-] | 8.14 |
| O=C(/C=N/O)Nc1ccc[n+](Cc2cccc(C[n+]3cccc(NC(=O)/C=N/O)c3)c2)c1.[Br-].[Br-] | 8.23 |
| O=C(/C=N\O)Nc1ccc[n+](CCCCC[n+]2cccc(NC(=O)/C=N\O)c2)c1.[Br-].[Br-] | 8.14 |
| O=C(/C=N\O)Nc1ccc[n+](CCCCCC[n+]2cccc(NC(=O)/C=N\O)c2)c1.[Br-].[Br-] | 8.25 |

Source: ChEMBL document CHEMBL3259811, “Synthesis and in vitro evaluation of bis-quaternary 2-(hydroxyimino)-N-(pyridin-3-yl)acetamide derivatives as reactivators against sarin and VX inhibited human acetylcholinesterase (hAChE)” (2014)
